Molecular target: DQA1*0102/DQB1*0602 (Homo sapiens, UniProt P01909+P01920, A157G/A45G/C70R/E118A/E183D/E77G/F83G/G63E/H151Q/H199R/H252R/H253Q/I129T/I235V/I88M/INS77G/K197Q/L117V/L119F/L178F/L71W/L74F/L85Q/L91A/L98M/N214S/P87R/Q116E/Q76K/R102G/R240Q/R75S/R78G/S102Y/S185I/S41F/S97I/T121G/T122I/T172A/T86R/V229M/V68A/V73E/Y34C/Y41F/Y58L)
Experiment: biochemical
Format: binding

Amino acid sequences for entries named in this document (tags omitted). Residues count along the entry.
UniProt P01920, 33-261 with the stated changes: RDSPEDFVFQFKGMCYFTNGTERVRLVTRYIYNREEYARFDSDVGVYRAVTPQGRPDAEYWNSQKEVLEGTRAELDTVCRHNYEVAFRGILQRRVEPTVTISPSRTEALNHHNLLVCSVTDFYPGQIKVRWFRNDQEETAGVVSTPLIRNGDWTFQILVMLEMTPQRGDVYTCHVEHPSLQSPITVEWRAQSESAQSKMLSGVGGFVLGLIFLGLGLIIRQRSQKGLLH

## CC(C)C[C@H](NC(=O)[C@H](CC(=O)O)NC(=O)[C@H](CO)NC(=O)CNC(=O)[C@H](Cc1c[nH]cn1)NC(=O)[C@@H](NC(=O)[C@@H](NC(=O)[C@H](CS)NC(=O)[C@H](C)NC(=O)[C@H](CCCCN)NC(=O)[C@H](C)NC(=O)[C@H](CC(=O)O)NC(=O)[C@H](CCCNC(=N)N)NC(=O)[C@@H]1CCCN1C(=O)[C@@H](N)CC(N)=O)C(C)C)C(C)C)C(=O)N[C@@H](CCCCN)C(=O)O
  IC50: 379 nM

— publication PMC3307390 (Journal of Immunology (Baltimore, Md. : 1950), 2010)
